The entries are a selection whose mix differs from that of the whole data set. Active and inactive are the calls of the source.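 How the source made its calls: active means inhibition above the mean of all tested compounds plus 3 SD, set per campaign (cut at about 25% in these data); inactive means the rest.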
Biological target: Tyrosyl-DNA phosphodiesterase 2 (Homo sapiens) (UniProt O95551)
Assay: human TDP2 enzyme inhibitors, primary screen, biochemical, epi absorbance, recombinant enzyme (AID 720702);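 further: 0% = DMSO with enzyme and 100% = buffer with substrate but no TDP2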
Settings: recombinant TDP2, T5PNP hydrolysis, p-nitrophenol absorbance 415 nm; at 12.8 µM; stronger effect = higher value
Method in brief: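 System: recombinant human TDP2 / Amount: 120 nM TDP2 per well / Also added: 5 mM T5PNP chromogenic substrate / Doses: 12.8 µM single point, 1% DMSO / Incubation: 2 h at 37 °C / Detection: p-Nitrophenol epi absorbance / Evaluation: % inhibition relative to enzyme-containing and enzyme-free wells / Repeats: singlicate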

Chains of the proteins cited; added tags and fusions are not shown. Lines headed by an entry give the natural chain unless they say otherwise; changes in a name come on top.
UniProt O95551: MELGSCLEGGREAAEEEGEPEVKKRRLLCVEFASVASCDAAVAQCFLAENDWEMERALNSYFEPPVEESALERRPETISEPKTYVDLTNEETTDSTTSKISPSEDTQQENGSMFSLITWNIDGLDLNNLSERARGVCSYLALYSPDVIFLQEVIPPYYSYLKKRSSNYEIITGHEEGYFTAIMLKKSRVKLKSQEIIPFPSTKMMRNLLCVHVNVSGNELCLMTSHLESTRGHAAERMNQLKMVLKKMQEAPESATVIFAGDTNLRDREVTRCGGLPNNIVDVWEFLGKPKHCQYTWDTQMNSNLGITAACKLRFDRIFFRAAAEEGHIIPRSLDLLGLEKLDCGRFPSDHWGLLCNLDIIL

Row | SMILES | inhibition
1 | Cc1ccc(OP(=O)(Nc2ccc([N+](=O)[O-])cn2)Oc2ccc(C)cc2)cc1 | inactive: -1.68%
2 | COC(=O)C1(C)COP(=O)(N2CCCCCC2)OC1 (stereo not drawn) | inactive: 8.74%
3 | CC(C)c1ccc(OP(=O)(Nc2ccccn2)Oc2ccccc2F)cc1 (stereo not drawn) | inactive: -9.12%
4 | ClCCSc1nnc(-c2cccnc2)o1 | inactive: 2.59%
5 | CC(C)NC(=O)NP(=O)(Oc1ccccc1)Oc1ccccc1 | inactive: 0.36%
6 | O=C(OC1CN2CCC1CC2)c1cccc2[nH]cnc12 (stereo not drawn) | inactive: -7.36%
7 | CCN(CC)C(=S)SC(NC=O)C(Cl)(Cl)Cl (stereo not drawn) | inactive: 6.18%
8 | CC1CCNP(=O)(N(CCCl)CCCl)O1 (stereo not drawn) | inactive: -16.6%
9 | CCOC(=O)Nc1ccc([As](=O)(O)O)c(O)c1 | inactive: 13.2%
10 | O=C(O)C(O)c1ccc(N(CCCl)CCCl)cc1 (stereo not drawn) | inactive: -1.62%
11 | CCCCOc1ccc(C(=O)NCC2(N3CCCCC3)CCCCC2)cc1OC | inactive: 9.37%
12 | Cc1cc(SC(NC(=O)c2ccccc2)C(Cl)(Cl)Cl)nc(C(C)C)n1 (stereo not drawn) | inactive: 12.6%
13 | COP(=O)(OC)N1CC1c1ccccc1 (stereo not drawn) | inactive: 1.02%
14 | CCOC(=O)Nc1cccc([As](=O)(O)O)c1 | inactive: -0.53%
15 | O=[N+]([O-])c1ccc(Nc2ccc(Oc3ccc([N+](=O)[O-])cc3[N+](=O)[O-])cc2)c([N+](=O)[O-])c1 | inactive: 1.07%
16 | O=P(Nc1ccccn1)(c1cccc2ccccc12)c1cccc2ccccc12 | inactive: 10.6%
17 | Cc1cc(SC(NC=O)C(Cl)(Cl)Cl)ncn1 (stereo not drawn) | inactive: 5.24%
18 | COP1(=S)c2c(C)nn(CCC#N)c2N=C(c2ccc(F)cc2)N1C (stereo not drawn) | inactive: -1.81%
19 | COC(=O)C1(C)COP(=O)(N2CCCC2)OC1 (stereo not drawn) | inactive: -12.6%
20 | O=C(COc1ccccc1)OC1CN2CCC1CC2 (stereo not drawn) | inactive: 5.39%
21 | O=C(Nc1ccncc1[N+](=O)[O-])c1ccc([N+](=O)[O-])cc1[N+](=O)[O-] | inactive: -11.3%
22 | O=C(O)C(=O)c1ccc(N(CCCl)CCCl)cc1 | inactive: 1.18%
23 | CCOC(=O)c1ccc(NC(=O)C(C)(CCl)SC)cc1 (stereo not drawn) | inactive: -8.09%
24 | O=C(OC1CN2CCC1CC2)c1cccc([N+](=O)[O-])c1 (stereo not drawn) | inactive: 7.48%
25 | CCC(C)N(CC(C)C)C(=S)SC(NC(C)=O)C(Cl)(Cl)Cl (stereo not drawn) | inactive: -4.54%
26 | CCOP(=O)(Nc1ccc(C)cn1)OCC | inactive: 2.89%
27 | CN(CCCl)Cc1cc(Cl)c(NC2=NCCN2)c(Cl)c1 | inactive: 10.9%
28 | O=P1(Nc2ccccn2)COc2ccccc2OC1 | inactive: 6.92%

Reference: PubChem BioAssay AID720702 (The Scripps Research Institute Molecular Screening Center, 2013)
